Measured values: US8933056B2, “Soft protease inhibitors and pro-soft forms thereof” (Trustees of Tufts College, priority 2005, dated 2015)

Chains of the proteins cited; added tags and fusions are not shown. Lines headed by an entry give the natural chain unless they say otherwise; changes in a name come on top.
UniProt P22411: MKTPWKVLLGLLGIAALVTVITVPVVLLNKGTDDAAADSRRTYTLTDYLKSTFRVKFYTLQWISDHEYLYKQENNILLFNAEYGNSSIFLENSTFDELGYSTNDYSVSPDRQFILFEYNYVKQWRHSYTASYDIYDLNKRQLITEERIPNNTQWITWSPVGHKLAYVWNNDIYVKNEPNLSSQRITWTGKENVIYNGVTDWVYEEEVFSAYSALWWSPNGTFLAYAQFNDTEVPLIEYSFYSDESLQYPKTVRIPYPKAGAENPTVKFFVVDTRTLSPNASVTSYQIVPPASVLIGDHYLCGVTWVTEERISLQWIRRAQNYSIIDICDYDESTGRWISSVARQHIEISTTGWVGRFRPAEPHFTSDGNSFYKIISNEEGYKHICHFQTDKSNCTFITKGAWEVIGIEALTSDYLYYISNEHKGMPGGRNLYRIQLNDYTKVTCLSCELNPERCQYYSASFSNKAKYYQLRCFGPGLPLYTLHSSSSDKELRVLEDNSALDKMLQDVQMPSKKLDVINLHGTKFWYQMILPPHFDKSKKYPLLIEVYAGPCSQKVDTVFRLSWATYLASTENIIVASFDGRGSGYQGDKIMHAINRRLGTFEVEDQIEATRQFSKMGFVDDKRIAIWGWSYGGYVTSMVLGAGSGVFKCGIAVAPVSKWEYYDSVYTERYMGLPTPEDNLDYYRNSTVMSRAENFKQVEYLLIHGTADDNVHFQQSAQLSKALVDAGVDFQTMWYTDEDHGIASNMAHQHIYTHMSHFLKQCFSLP

Biological target: DP-IV (Sus scrofa (Pig), UniProt P22411)
Experiment: DPP IV inhibition: thioxamide v. oxoamide
Assay type: biochemical, porcine
Method: The inhibitory activity of a compound may be tested easily. […] A compound is then screened for its ability to inhibit the protease activity of DP-IV with respect to a […] substrate. […] Briefly, a reaction containing 50 micromol sodium Hepes (pH 7.8), 10 micromol Ala-Pro-p-nitroanilide, 6 milliunits of DP-IV, and 2% (vol/vol) dimethylformamide in a total volume of 1.0 mL. The reaction was initiated by the addition of enzyme and reaction rates were measured at 25 C; formation of reaction product (para-nitroanilide) in the presence and absence of a test compound can be detected photometrically, e.g., at 410 nm.

How did the IC50 (IC50 (pH 2.0), pH 2.0) turn out when `N[C@@H](CC(=O)O)C(=O)N1CCC[C@H]1B(O)O` [Asp-boroPro, reference compound] was run?
The IC50 was 0.2 µM.

And the IC50 (IC50 (pH 8.0), pH 8.0)?
The IC50 was 35 µM.

And the “Inactivation Index” value (IC50 pH 8.0 to pH 2.0)?
Its value is 180.
